Source: US20260384421A1, “NOVEL COMPOUNDS THAT CAN BE USED AS THERAPEUTIC AGENTS” (published 2026)

Tests used:
[1] = system: MDA-MB-231 cells; assay: alamarBlue proliferation assay with MDA-MB-231 cells (glucose-free Leibovitz's L-15 medium)
[2] = system: TANQUE cells; assay: alamarBlue proliferation assay with TANQUE cells; conditions: read-out: Activity on TANOUE: IC50, RPMI 1640 medium, 10% FBS
[3] = system: NB-4 cells; assay: alamarBlue proliferation assay with NB-4 cells; conditions: read-out: Activity on NB-4: IC50, RPMI 1640 medium, 10% FBS
[4] = system: HCT-116 cells; assay: alamarBlue proliferation assay with HCT-116 cells; conditions: read-out: Activity on HCT-116: IC50, McCoy's 5A medium, 10% FBS
[5] = system: BHY cells; assay: alamarBlue proliferation assay with BHY cells; conditions: read-out: Activity on BHY: IC50, DMEM medium, 10% FBS
[6] = system: A-549 cells; assay: alamarBlue proliferation assay with A-549 cells; conditions: read-out: Activity on A-549: IC50, DMEM medium, 10% FBS
[7] = system: A-375 cells; assay: alamarBlue proliferation assay with A-375 cells; conditions: read-out: Activity on A-375: IC50, DMEM medium, 10% FBS
From the text: (§1) These hyperproliferative processes can be benign or malignant and include hyperplasia, neoplasia, cancer and pre-cancerous lesions, and metastases. The antiproliferative activities of compounds falling under general formula (I) were investigated on human primary epidermal keratinocytes (HPEK) and human, murine and canine cell lines derived from hyperproliferative tissue or different cancer types, including MDA-MB-231, ZR-75-30, HCC-1395, HCC-1937, and T-47D all originating from cancer of the breast, JURKAT, RPMI-8402, LOUCY, TANQUE, REC-1, HL-60, NB-4 all originating from different types of blood cancer including lymphoma and leukemia of T-cells, B-cells and myeloid cells, TT originating from cancer of the neuroendocrine system, HeLa originating from cancer of the cervix, 23132/87, SW-948, and HCT-116 all originating from cancer of the gastrointestinal tract including stomach and colon, BHY originating from cancer of the mucosal epithelium, A-431 originating from cancer of the skin, HEP-G2 originating from cancer of the liver, NCI-H460 and A-549 both originating from cancer of the lung, PANC-1 originating from cancer of the pancreas, U-87 MG originating from cancer of the brain, A-375 and RVH-421 both originating from cancer of melanocytes, SW-1353 originating from cancer of bone-derived chondrocytes, C2C12 a mouse cell line originating from hyperproliferative muscle progenitor cells, LL/2 a mouse cell line originating from cancer of the lung, CF21.T a dog cell line originating from cancer of the connective tissue. To this end, according cells were seeded into 96-well plates (CORNING #3598) suitable for fluorescence assays at following initial cell numbers: 1000 cells per well for HPEK; 3000 cells per well for MDA-MB-231, 8000 cells per well for ZR-75-30, 1500 cells per well for HCC-1395, 1500 cells per well for HCC-1937, 3000 cells per well for T-47D, 1500 cells per well for JURKAT, 5000 cells per well for RPMI-8402, 9000 cells per well for LOUCY, 1500 cells per well for TANQUE, 9000 cells per well for REC-1, 1000 cells per well for HL-60, 1000 cells per well for NB-4, 9000 cells per well for TT, 2000 cells per well for HeLa, 2000 cells per well for 23132/87, 9000 cells per well for SW-948, 700 cells per well for HCT-116, 1500 cells per well for BHY, 700 cells per well for A-431, 1500 cells per well for HEP-G2, 500 cells per well for NCI-H460, 1000 cells per well for A-549, 1500 cells per well for PANC-1, 2500 cells per well for U-87 MG, 700 cells per well for A-375, 1500 cells per well for RVH-421, 2000 cells per well for SW-1353, 500 cells per well for C2C12, 500 cells per well for LL/2, and 3000 cells per well for CF21.T. In a volume of 90 μL per well of culture medium the cells were treated with compounds at indicated final concentrations by adding 10 μL per well of 10× compound working solutions from 1:100 pre-diluted 1000× compound DMSO stock-solutions in H2O (Water For Injection, WFI, Fisher Scientific, Gibco™ #A12873) or with the empty carrier DMSO (AppliChem, #A3672) at 0.1% v/v as control yielding a final volume of 100 μL per well. At day 5 after starting the treatments the cells were subjected to the alamarBlue® Proliferation Assay (Bio-Rad Serotec GmbH, BUF012B) according to the protocol of the manufacturer. The readout was taken with a multi-well plate-reader (Tecan Spark®) in the fluorescence mode with applying a filter for excitation at 560 nm (band width 10 nm) and for emission at 590 nm (band width 10 nm). Treatment for maximum proliferation inhibition with the commercial cytotoxic compound (S)-(+)-camptothecin (Fluorochem #M01564) at a concentration of 10 μM was included on each plate for assay quality control. Some of the test compounds of the present invention may have been obtained and applied as their salt forms.
(§2) The assays were performed in duplicate or more replicates of independent single experiments each containing a three- to six-fold replicate for every condition. […]

[8] = system: LL/2 cells; assay: alamarBlue proliferation assay with LL/2 cells; conditions: read-out: Activity on LL/2: IC50; LL/2 murine Lewis lung carcinoma cells, DMEM medium, 10% FBS
[9] = system: CF21.T cells; assay: alamarBlue proliferation assay with CF21.T cells; conditions: read-out: Activity on CF21.T: IC50; CF21.T canine cells, DMEM medium, 10% FBS
From the text: as §1, §2

[10] = system: C2C12 cells; assay: alamarBlue proliferation assay with C2C12 cells; conditions: read-out: Activity on C2C12: IC50; C2C12 murine myoblast cells, RPMI 1640 medium, 10% FBS
From the text: as §1, §2

[11] = system: HPEKp cells; assay: proliferation assay with human epidermal keratinocyte progenitors (HPEKp), selectivity versus MDA-MB-231
[12] = system: HEP-G2 cells; assay: alamarBlue proliferation assay with HEP-G2 cells; conditions: read-out: Activity on HEP-G2: IC50, RPMI 1640 medium, 10% FBS
[13] = system: NCI-H460 cells; assay: alamarBlue proliferation assay with NCI-H460 cells; conditions: read-out: Activity on NCI-H460: IC50, RPMI 1640 medium, 10% FBS
[14] = system: A-431 cells; assay: alamarBlue proliferation assay with A-431 cells; conditions: read-out: Activity on A-431: IC50, DMEM medium, 10% FBS
[15] = system: U-87 MG cells; assay: alamarBlue proliferation assay with U-87 MG cells; conditions: read-out: Activity on U-87MG: IC50, EMEM medium, 10% FBS
From the text: as §1, §2

[16] = system: SW-1353 cells; assay: alamarBlue proliferation assay with SW-1353 cells (glucose-free L-15 medium); conditions: read-out: Activity on SW-1353: IC50, Leibovitz's L-15 medium, 10% FBS, 0% CO2
[17] = read-out: Activity on MDA-MB-231 (IC50), glucose-free Leibovitz's L-15, 10% FBS, day 5, alamarBlue
[18] = read-out: Activity (MDA): antiproliferative activity on MDA-MB-231 cells, IC50 category, MDA-MB-231 cells cultivated in glucose-free Leibovitz's L-15 medium
[19] = read-out: Activity (HPEK): antiproliferative activity on HPEK cells, IC50 category, HPEK cells cultivated in CnT-Prime medium
[20] = read-out: Activity (MDA), MDA-MB-231 cells, antiproliferative activity, class by IC50
[21] = read-out: Activity (HPEK), HPEK cells (HPEKp), antiproliferative activity, class by IC50

| Compound | IC50 [1, 17] [µM] | IC50 [4] [µM] | IC50 [6] [µM] | IC50 [7] [µM] | IC50 [1, 18] [µM] | IC50 [11, 19] [µM] | IC50 [1, 20] [µM] | IC50 [12] [µM] | IC50 [11, 21] [µM] | IC50 [13] [µM] | IC50 [14] [µM] | IC50 [15] [µM] | IC50 [16] [µM] | IC50 [2] [µM] | IC50 [3] [µM] | IC50 [5] [µM] | IC50 [8] [µM] | IC50 [9] [µM] | IC50 [10] [µM] |
| --- | --- | --- | --- | --- | --- | --- | --- | --- | --- | --- | --- | --- | --- | --- | --- | --- | --- | --- | --- |
| COc1ccc(CN2CCN(C(=O)c3ccc(Oc4ccc(C5CCC6(CC5)SCCS6)cc4CO)cc3)CC2)cc1 | ≤ 0.2 | ≤ 0.2 | ≤ 0.2 | ≤ 0.2 |  |  | < 1 |  | < 5 |  | ≤ 0.2 |  |  | ≤ 0.2 | ≤ 0.2 | ≤ 0.2 | ≤ 1 | ≤ 5 |  |
| COc1ccccc1CN1CCN(C(=O)c2ccc(Oc3ccc(C4CCC5(CC4)OCCO5)cc3CO)cc2)CC1 | ≤ 1 |  | ≤ 5 |  | < 1 | < 5 |  |  |  | ≤ 5 |  | ≤ 20 | ≤ 1 |  |  |  |  |  |  |
| O=C(c1ccc(Oc2ccc(C3CCC4(CC3)OCCO4)cc2CO)cc1)N1CCCN(Cc2ccccc2)CC1 | ≤ 0.2 |  | ≤ 5 |  | < 1 | > 10 |  |  |  |  |  |  | ≤ 1 |  |  |  |  |  | ≤ 20 |
| O=C(c1ccc(Oc2ccc(C3CCC4(CC3)OCCO4)cc2CO)cc1)N1CCN(Cc2ccc(OC(F)(F)F)cc2)CC1 | ≤ 0.2 | ≤ 0.2 | ≤ 0.2 | ≤ 0.2 | < 1 | > 10 |  |  |  |  | ≤ 0.2 |  | ≤ 0.2 | ≤ 0.2 | ≤ 0.2 | ≤ 0.2 | ≤ 0.2 |  | ≤ 1 |
| COC1CCC(c2ccc(Oc3ccc(C(=O)N4CCN(Cc5cnc6ccccc6c5)CC4)cc3)c(CO)c2)CC1 (centres unmarked) | ≤ 0.2 | ≤ 0.2 | ≤ 0.2 |  |  |  | < 1 | ≤ 0.2 | < 10 |  |  |  |  | ≤ 0.2 | ≤ 0.2 | ≤ 0.2 | ≤ 0.2 | ≤ 1 |  |

Second part, led by results:

| IC50 [1, 17] [µM] | IC50 [4] [µM] | IC50 [6] [µM] | IC50 [7] [µM] | IC50 [1, 18] [µM] | IC50 [11, 19] [µM] | IC50 [1, 20] [µM] | IC50 [12] [µM] | IC50 [11, 21] [µM] | IC50 [13] [µM] | IC50 [14] [µM] | IC50 [15] [µM] | IC50 [16] [µM] | Compound | IC50 [2] [µM] | IC50 [3] [µM] | IC50 [5] [µM] | IC50 [8] [µM] | IC50 [9] [µM] | IC50 [10] [µM] |
| --- | --- | --- | --- | --- | --- | --- | --- | --- | --- | --- | --- | --- | --- | --- | --- | --- | --- | --- | --- |
| ≤ 0.2 | ≤ 0.2 | ≤ 0.2 | ≤ 0.2 |  |  |  |  |  |  |  |  |  | O=Cc1cc(C2CCC3(CC2)SCCS3)ccc1Oc1ccc(C(=O)N2CCN(Cc3ccc(Cl)cc3)CC2)cc1 | ≤ 0.2 | ≤ 0.2 | ≤ 0.2 | ≤ 1 | ≤ 1 |  |
| ≤ 0.2 |  |  |  | < 1 | < 10 |  |  |  |  |  |  |  | O=C(c1ccc(Oc2ccc(C3CCC4(CC3)OCCO4)cc2CO)cc1)N1CCN(Cc2cc3ccccc3[nH]2)CC1 |  |  |  |  |  | ≤ 1 |
| ≤ 0.2 | ≤ 0.2 | ≤ 0.2 |  |  |  | < 1 | ≤ 0.2 | < 10 |  |  |  |  | COC1CCC(c2ccc(Oc3ccc(C(=O)N4CCN(Cc5ccc(Cl)nc5)CC4)cc3)c(CO)c2)CC1 (centres unmarked) | ≤ 0.2 | ≤ 0.2 | ≤ 0.2 | ≤ 0.2 | ≤ 1 |  |
| ≤ 0.2 |  |  |  |  |  |  |  |  | ≤ 20 |  |  |  | CC(=O)Oc1ccc(CN2CCN(C(=O)c3ccc(Oc4ccc(C5CCC6(CC5)OCCO6)cc4C=O)cc3)CC2)cc1 |  |  |  |  |  | ≤ 5 |
| ≤ 0.2 |  |  |  | < 1 | < 5 |  |  |  |  |  |  |  | O=Cc1cc(C2CCC3(CC2)SCCS3)ccc1Oc1ccc(C(=O)N2CCN(Cc3ccccc3)CC2)cc1 |  |  |  |  |  | ≤ 20 |
| ≤ 0.2 | ≤ 0.2 | ≤ 0.2 | ≤ 0.2 |  |  | < 1 | ≤ 0.2 | < 5 |  | ≤ 0.2 |  |  | COC1CCC(c2ccc(Oc3ccc(C(=O)N4CCN(Cc5ccc(S(F)(F)(F)(F)F)cc5)CC4)nc3)c(CO)c2)CC1 (centres unmarked) | ≤ 0.2 | ≤ 0.2 | ≤ 0.2 | ≤ 0.2 | ≤ 0.2 |  |
| ≤ 0.2 | ≤ 0.2 | ≤ 0.2 |  |  |  | < 1 | ≤ 0.2 | < 5 |  |  |  |  | COC1CCC(c2ccc(Oc3ccc(C(=O)N4CCN(Cc5ccc6ccccc6c5)CC4)cc3)c(CO)c2)CC1 (centres unmarked) | ≤ 0.2 | ≤ 0.2 | ≤ 0.2 | ≤ 0.2 | ≤ 0.2 |  |

Where two headings read alike, the source gives them in different places.
